Results as given in patent US20150166988A1.

Biological target: human plasma kallikrein (activated with factor XIIa) (human) (UniProt P03952)
Assay: cell-based or functional assay

In the case of aprotinin (from UniProt P00974 36-93), the concentration needed for the same suppression of factor XIIa and plasma kallikrein activation, against PK15 is reported as 30 fold, the factor XIIa activity in kaolin-triggered human plasma (concentration that halves it) is reported as 5 µM and the prolongation of the thrombin activation time in human plasma is reported as 50 nM.
